Measured values: article PMC11601504 (bioRxiv, 2024)

Biological target: the molecule itself
Experiment: negative-stain electron microscopy

B1: Mouse Thorase (residues 41–361), wild type (enzyme)
chain: IDPTRKQKVEAQKQAEKLMKQIGVKNVKLSEYEMSIAAHLVDPLNMHVTWSDIAGLDDVITDLKDTVILPIKKKHLFENSRLLQPPKGVLLYGPPGCGKTLIAKATAKEAGCRFINLQPSTLTDKWYGESQKLAAAVFSLAIKLQPSIIFIDEIDSFLRNRSSSDHEATAMMKAQFMSLWDGLDTDHSCQVIVMGATNRPQDLDSAIMRRMPTRFHINQPALKQREAILKLILKNENVDRHVDLLEVAQETDGFSGSDLKEMCRDAALLCVREYVNSTSEESHDEDEIRPVQQQDLHRAIEKMKKSKDAAFQNVLTHVCLD
B1: binds.
